Literature values, collected in patent US20110082867A1, “SYSTEM, METHOD, AND COMPUTER PROGRAM PRODUCT FOR ANALYZING DRUG INTERACTIONS” (priority 2009, published 2011).

Chains of the proteins cited; added tags and fusions are not shown.
UniProt P10632, whole entry: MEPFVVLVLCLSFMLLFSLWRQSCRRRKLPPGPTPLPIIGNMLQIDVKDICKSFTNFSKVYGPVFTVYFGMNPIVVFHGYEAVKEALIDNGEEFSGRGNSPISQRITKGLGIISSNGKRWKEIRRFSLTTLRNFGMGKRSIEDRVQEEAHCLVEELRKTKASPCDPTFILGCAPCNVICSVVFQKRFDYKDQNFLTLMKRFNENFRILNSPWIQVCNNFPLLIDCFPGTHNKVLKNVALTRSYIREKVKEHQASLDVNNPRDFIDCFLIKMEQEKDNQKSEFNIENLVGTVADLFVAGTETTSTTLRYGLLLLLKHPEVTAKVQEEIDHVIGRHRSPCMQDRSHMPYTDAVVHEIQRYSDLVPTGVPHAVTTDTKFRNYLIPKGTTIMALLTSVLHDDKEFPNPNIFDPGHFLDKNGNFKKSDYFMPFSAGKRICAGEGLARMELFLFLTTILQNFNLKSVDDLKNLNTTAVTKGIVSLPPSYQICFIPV
UniProt P11712, whole entry: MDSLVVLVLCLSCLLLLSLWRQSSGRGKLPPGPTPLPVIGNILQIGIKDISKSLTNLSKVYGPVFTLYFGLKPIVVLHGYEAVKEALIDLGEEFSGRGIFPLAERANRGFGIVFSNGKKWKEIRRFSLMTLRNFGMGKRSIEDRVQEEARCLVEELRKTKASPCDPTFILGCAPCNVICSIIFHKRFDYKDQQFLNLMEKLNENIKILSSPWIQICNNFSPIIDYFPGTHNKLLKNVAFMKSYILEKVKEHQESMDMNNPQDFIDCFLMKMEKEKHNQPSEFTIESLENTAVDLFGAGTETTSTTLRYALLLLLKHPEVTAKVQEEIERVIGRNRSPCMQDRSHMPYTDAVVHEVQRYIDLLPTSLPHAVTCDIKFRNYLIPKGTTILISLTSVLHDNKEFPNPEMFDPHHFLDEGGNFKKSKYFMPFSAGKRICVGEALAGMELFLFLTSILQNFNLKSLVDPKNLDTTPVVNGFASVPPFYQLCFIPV

What was measured:
CYP 2C8 = CYP 2C8 (Homo sapiens, UniProt P10632); conditions: Gene CYP 2C8; involvement strength and type
CYP 2C9 = CYP 2C9 (Homo sapiens, UniProt P11712); conditions: Gene CYP 2C9; involvement strength and type

Drug Interaction (CYP 2C8): Major Substrate
Drug Interaction (CYP 2C9): Major Substrate
Structure (SMILES): CN(CCOc1ccc(CC2SC(=O)NC2=O)cc1)c1ccccn1 (centres unmarked) [Rosiglitazone]
